Literature values in US9480685B2, “Abuse-resistant controlled-release opioid dosage form” (Purdue Pharma L.P., priority 2001, dated 2016).

System: opioid receptors
Conditions: injected (or snorted) in humans

Question: With `C=CCN1CC[C@]23c4c5ccc(O)c4O[C@H]2C(=O)CC[C@@]3(O)[C@H]1C5` [naloxone] as the compound, how does the “amount that blocks the opioid receptors / antagonizes the opioid effect” value read?
Answer: 0.2 to 0.4 mg
